Only a part is listed here, and it is no random draw. Calls of active or inactive are those of the source.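 How the source made its calls: active means side scatter shift above 30%; inactive means the rest.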

A short description of the assay: inducers of granularity increase in LNCaP cells – cell-based, flow cytometry side scatter, primary screen (AID 795).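 Further: androgen-responsive LNCaP prostate cancer cells in charcoal-stripped serum medium; percent of cells past a gate set so DMSO wells show 10% shift; higher shift means more granular cells and more differentiation.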 Particulars: LNCaP differentiation, 4 d, at 10 µM, hits give high values. For orientation: Flow cytometry measures light scatter and fluorescence of single cells or particles in a stream.
As to `O=C(COc1ccccc1)OC1CN2CCC1CC2` (configuration not stated), the side scatter shift is inactive: 10%.
Take `COP1(=S)c2c(C)nn(CCC#N)c2N=C(c2ccc(F)cc2)N1C` (configuration not stated): the side scatter shift was inactive: 12%.
As for `Cc1nn(-c2ccccc2)c2c1P(=O)(N1CCOCC1)N(C)C(c1ccccc1)=N2` (configuration not stated), the side scatter shift is inactive: 7%.
For `Clc1n[nH]nc1-c1nn[nH][15n]1`, the side scatter shift is inactive: 6%.
Consider `CCOP1(=S)c2c(C)nn(CCC#N)c2N=C(c2ccccc2F)N1C` (configuration not stated), for which the side scatter shift is inactive: 13%.
As for `O=P(Nc1nccs1)(c1ccccc1)c1ccccc1`, the side scatter shift is inactive: 17%.
As to `CCc1nc2c(n1)c1c(non1O)c1c2no[n+]1[O-]`, the side scatter shift is inactive: 5%.

The record behind these values is PubChem BioAssay AID795 (NMMLSC, 2007).
